Experiment: Toxicity of the peptide, tail vein administration
Format: in vivo
Details: female BALB/c mouse, 5 mg/kg
Description: The peptide used in the present invention was administered to a mouse from its tail vein to thereby evaluate its toxicity. The mouse used was a female BALB/c mouse of 5 week old, and the peptide was used at a dose of 5 mg/kg.

For `CC(C)C[C@H](NC(=O)[C@H](C)NC(=O)[C@H](CC(C)C)NC(=O)[C@H](CCC(N)=O)NC(=O)[C@H](Cc1c[nH]cn1)NC(=O)[C@@H](NC(=O)[C@H](Cc1c[nH]c2ccccc12)NC(=O)[C@H](CO)NC(=O)[C@H](CCCNC(=N)N)NC(=O)[C@@H]1CCCN1C(=O)[C@H](Cc1c[nH]cn1)NC(=O)[C@H](CC(C)C)NC(=O)[C@H](CCCNC(=N)N)NC(=O)[C@H](CC(C)C)NC(=O)[C@H](Cc1ccc(O)cc1)NC(=O)[C@H](CCCNC(=N)N)NC(=O)[C@H](CC(C)C)NC(=O)[C@H](CCCNC(=N)N)NC(=O)[C@H](CC(C)C)NC(=O)[C@H](C)NC(=O)[C@H](CC(C)C)NC(=O)[C@H](CCC(N)=O)NC(=O)[C@H](Cc1c[nH]cn1)NC(=O)[C@@H](NC(=O)[C@H](Cc1c[nH]c2ccccc12)NC(=O)[C@H](CO)NC(=O)[C@H](CCCNC(=N)N)NC(=O)[C@@H]1CCCN1C(=O)[C@H](Cc1c[nH]cn1)NC(=O)[C@H](CC(C)C)NC(=O)[C@H](CCCNC(=N)N)NC(=O)[C@H](CC(C)C)NC(=O)[C@H](Cc1ccc(O)cc1)NC(=O)[C@H](CCCNC(=N)N)NC(=O)[C@@H](N)[C@@H](C)O)C(C)C)C(C)C)C(=O)N[C@@H](CCCNC(=N)N)C(=O)N[C@@H](CO)C(=O)O` [SEQ ID NO: 16], the “Toxicity after tail vein administration” value was “no significant effects”.
